Consider five compounds from patent US20200405697A1, “Antitumor Agent” (Taiho Pharmaceutical Co., Ltd, priority 2017, published 2020).

Assay [1] has as its system MV-4-11 (Human blood cancer cell line). Briefly: Effect of combination of sulfonamide compound and other antitumor agent (CellTiter-Glo, combination index): MV-4-11. In general terms: ATP-based viability assays read luminescence as a measure of living cells.
In assay [2] the test system is A549 (Human lung cancer cell line). The experiment in a line: Effect of combination of sulfonamide compound and other antitumor agent (CellTiter-Glo, combination index): A549.
Assay [3] has as its system CFPAC-1 (Human pancreatic cancer cell line). Briefly: Effect of combination of sulfonamide compound and other antitumor agent (CellTiter-Glo, combination index): CFPAC-1.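 Note: cells exposed to both agents together for 3 days, viability read by luminescence, normalized to vehicle-treated control wells, mean of triplicate wells.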
Where [4] appears, read: Example Compound 209A 145 nM + Decitabine 75.2 nM.
[5] abbreviates: Example Compound 235A 203 nM + Decitabine 75.3 nM.
The mark [6] stands for this setting: Example Compound 1 633 nM + Cytarabine 162 nM, molar ratio 1:0.2566.
The mark [7] stands for this setting: Example Compound 1 633 nM + Decitabine 1330 nM, molar ratio 1:2.108.
[8] abbreviates: Example Compound 1 507 nM + Gemcitabine 3.52 nM, molar ratio 1:0.006950.
Where [9] appears, read: Example Compound 1 273 nM + Cytarabine 262 nM, molar ratio 1:0.9614.
Where [10] appears, read: Example Compound 5 700 nM + Gemcitabine 3.52 nM.
[11] abbreviates: Example Compound 209A 423 nM + Guadecitabine 489 nM.
[12] abbreviates: Example Compound 209A 145 nM + Guadecitabine 26.8 nM.
The mark [13] stands for this setting: Example Compound 235A 203 nM + Guadecitabine 26.8 nM.
Setting [14] is: Example Compound 209A 423 nM + Prexasertib 4.44 nM.
Where [15] appears, read: Example Compound 209A 339 nM + Prexasertib 4.26 nM.

On to `Nc1ncn([C@H]2C[C@H](O)[C@@H](CO)O2)c(=O)n1` [Decitabine, decitabine], for which, in assay [1] (setting [4]), the CI value worked out at 0.790 and the Fa value was determined as 0.6143. Moreover, in assay [1] (setting [5]), the CI value is given as 0.764 and the Fa value is 0.5302.
As for `Cc1ccc(F)c([C@@H](C)[C@H](NS(=O)(=O)c2ccc(Br)cc2C(N)=O)c2n[nH]c(=O)o2)c1C` [Example 1, 5-bromo-2-(N-((1 S,2R)-2-(6-fluoro-2,3-dimethylphenyl)-1-(5-oxo-4,5-dihydro-1,3,4-oxadiazol-2-yl)propyl)sulfamoyl)benzamide], the CI value worked out at 0.614 in assay [2] (setting [6]), 0.532 in assay [2] (setting [7]), 0.821 in assay [3] (setting [8]) and 0.574 in assay [1] (setting [9]). Besides, the Fa value in assay [2] (setting [6]) is recorded as 0.6164; in assay [2] (setting [7]), 0.3872; in assay [3] (setting [8]), 0.5009; in assay [1] (setting [9]) it was 0.7678.
For `Nc1ccn([C@@H]2O[C@H](CO)[C@@H](O)C2(F)F)c(=O)n1` [Gemcitabine, gemcitabine], in assay [3] (setting [10]), the CI value is on record as 0.814 and the Fa value is listed as 0.5292.
With `Nc1ncn([C@H]2C[C@H](OP(=O)(O)OC[C@H]3O[C@@H](n4cnc5c(=O)[nH]c(N)nc54)C[C@@H]3O)[C@@H](CO)O2)c(=O)n1` [Guadecitabine, guadecitabine], the figures for the CI value in assay [2] (setting [11]), in assay [1] (setting [12]) and in assay [1] (setting [13]) were 0.577, 0.767 and 0.696, respectively. For the same compound, the Fa value in assay [2] (setting [11]) worked out at 0.4525; in assay [1] (setting [12]), 0.6306; in assay [1] (setting [13]), 0.5802.
Regarding `COc1cccc(OCCCN)c1-c1cc(Nc2cnc(C#N)cn2)n[nH]1` [Prexasertib, prexasertib], in assay [2] (setting [14]), the CI value was found to be 0.169 and the Fa value was 0.8944. In assay [3] (setting [15]), the CI value was 0.704 and the Fa value is given as 0.7662.
